# Experimental data reported in PubChem BioAssay AID647 (Vanderbilt High Throughput Screening Facility, 2007).
# The entries are a selection whose mix differs from that of the whole data set. Active and inactive are the calls of the source.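 How the source made its calls: active means luminescence in either replicate above plate mean of wells with a partly effective reference agonist dose plus 3 SD; inactive means the rest.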
# Test: isoproterenol-driven CRE-luciferase response modulation in HEK293 cells, confirmation, counter-screen for D1 allosteric modulator project, cell-based, secondary assay 2, luminescence (AID 647);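 further: isoproterenol raises cAMP through native beta-adrenoceptor Gs so signal bypasses D1; raw luminescence counts from the Envision reader with one value per duplicate well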
# Conditions: isoproterenol EC30 counter-screen, at 10 µM, active compounds read high
row,SMILES,luminescence
1,Cc1nc2ccc3ccccc3c2s1.O=[N+]([O-])c1cc([N+](=O)[O-])c(O)c([N+](=O)[O-])c1,active: 3380
